Results published in patent publication US20230227428A1 (Anaxis Pharma Pty Ltd, priority 2020, published 2023).

Sequences of proteins named here, by UniProt entry; tags and fusion partners are left off. A change or cut given only in a name is not applied to a line headed by its entry.
UniProt Q9Y572: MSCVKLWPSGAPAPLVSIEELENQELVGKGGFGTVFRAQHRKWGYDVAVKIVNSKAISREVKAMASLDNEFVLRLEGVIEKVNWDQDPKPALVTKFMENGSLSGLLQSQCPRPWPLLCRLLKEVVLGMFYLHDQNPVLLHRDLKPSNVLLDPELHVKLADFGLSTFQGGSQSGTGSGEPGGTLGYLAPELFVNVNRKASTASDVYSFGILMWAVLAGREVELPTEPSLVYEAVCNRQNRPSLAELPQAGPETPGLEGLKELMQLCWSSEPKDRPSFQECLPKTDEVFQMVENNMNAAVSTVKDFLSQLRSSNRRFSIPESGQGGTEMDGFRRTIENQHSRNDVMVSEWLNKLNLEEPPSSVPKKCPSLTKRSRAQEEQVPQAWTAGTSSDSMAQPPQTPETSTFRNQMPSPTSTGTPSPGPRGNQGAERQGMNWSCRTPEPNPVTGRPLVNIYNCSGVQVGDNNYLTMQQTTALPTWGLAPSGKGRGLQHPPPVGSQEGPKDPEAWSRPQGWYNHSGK

Experiments:
Conditions in all cases: equilibrium dissociation constant
MLKL (full length) = biological target: T1, MLKL (full length) (Homo sapiens, UniProt Q8NB16); experiment: KINOMEscan binding affinity assay, MLKL
T1 construct: purchased DiscoverX (KINOMEscan service); host or cells: E. coli BL21-derived host (T7 phage) or HEK-293
T1 sequence (Q8NB16 1-471): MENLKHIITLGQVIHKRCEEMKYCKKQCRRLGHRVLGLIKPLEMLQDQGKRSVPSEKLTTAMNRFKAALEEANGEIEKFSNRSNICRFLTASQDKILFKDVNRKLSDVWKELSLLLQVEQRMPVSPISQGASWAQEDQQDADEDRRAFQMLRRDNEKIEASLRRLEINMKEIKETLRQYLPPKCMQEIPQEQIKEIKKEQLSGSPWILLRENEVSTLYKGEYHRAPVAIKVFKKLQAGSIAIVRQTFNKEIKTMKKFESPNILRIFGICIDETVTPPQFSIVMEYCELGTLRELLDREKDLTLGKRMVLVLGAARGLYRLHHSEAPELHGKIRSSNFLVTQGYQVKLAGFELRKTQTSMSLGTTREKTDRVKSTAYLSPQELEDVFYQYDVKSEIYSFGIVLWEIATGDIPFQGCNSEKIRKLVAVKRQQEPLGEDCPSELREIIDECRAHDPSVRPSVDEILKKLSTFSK

RIP1 = biological target: T2, RIP1 (Homo sapiens, UniProt Q13546); experiment: KINOMEscan binding affinity assay, RIP1
T2 construct: purchased DiscoverX (KINOMEscan service); host or cells: E. coli BL21-derived host (T7 phage) or HEK-293
T2 sequence (Q13546 1-671): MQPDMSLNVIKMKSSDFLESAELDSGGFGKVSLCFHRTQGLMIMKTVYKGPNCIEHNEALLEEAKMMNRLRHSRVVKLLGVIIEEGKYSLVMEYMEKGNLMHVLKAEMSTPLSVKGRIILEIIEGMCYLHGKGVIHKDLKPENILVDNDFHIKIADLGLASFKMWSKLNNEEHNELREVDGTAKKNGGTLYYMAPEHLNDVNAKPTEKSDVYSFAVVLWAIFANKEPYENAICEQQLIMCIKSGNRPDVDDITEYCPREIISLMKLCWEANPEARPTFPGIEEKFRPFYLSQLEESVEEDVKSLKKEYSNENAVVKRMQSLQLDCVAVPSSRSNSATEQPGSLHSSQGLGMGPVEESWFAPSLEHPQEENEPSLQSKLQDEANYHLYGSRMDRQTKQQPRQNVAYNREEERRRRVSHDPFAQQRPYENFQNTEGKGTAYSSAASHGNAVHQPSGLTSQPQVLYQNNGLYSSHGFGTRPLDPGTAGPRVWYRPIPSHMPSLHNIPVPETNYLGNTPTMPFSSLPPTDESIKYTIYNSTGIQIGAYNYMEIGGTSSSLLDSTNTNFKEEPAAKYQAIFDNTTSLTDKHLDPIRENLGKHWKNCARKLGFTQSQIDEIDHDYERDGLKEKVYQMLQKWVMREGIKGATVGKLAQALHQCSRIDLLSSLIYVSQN

RIP3 = biological target: T3, RIP3 (Homo sapiens, UniProt Q9Y572); experiment: KINOMEscan binding affinity assay, RIP3
T3 construct: purchased DiscoverX (KINOMEscan service); host or cells: E. coli BL21-derived host (T7 phage) or HEK-293

| Kd (MLKL (full length)) [nM] | Kd (RIP1) [nM] | Kd (RIP3) [nM] | SMILES |
| --- | --- | --- | --- |
| 100 to 1000 | > 1000 | > 1000 | NC(=O)c1c(-c2ccc(NC(=O)Cc3ccccc3)cc2)n[nH]c1Nc1ncccc1F [Compound 42, 5-((3-fluoropyridin-2-yl)amino)-3-(4-(2-phenyl-acetamido)phenyl)-1H-pyrazole-4-carboxamide] |
| < 100 | > 1000 | > 1000 | COc1cc(Nc2[nH]nc(-c3ccc(NC(=O)N4CC[C@@H](c5ccccc5)C4)cc3)c2C(N)=O)ccn1 [Compound 62, (S)-5-((2-methoxypyridin-4-yl)amino)-3-(4-(3-phenylpyrrolidine-1-carboxamido)phenyl)-1H-pyrazole-4-carboxamide] |
| < 100 | > 1000 | > 1000 | COc1cc(Nc2[nH]nc(-c3ccc(NC(=O)N4CCc5ccccc54)cc3)c2C(N)=O)ccn1 [Compound 55, N-(4-(4-carbamoyl-5-((2-methoxypyridin-4-yl)amino)-1H-pyrazol-3-yl)phenyl)indoline-1-carboxamide] |
| < 100 | > 1000 | > 1000 | COc1cc(Nc2[nH]nc(-c3ccc(NC(=O)N4Cc5ccccc5C4)cc3)c2C(N)=O)ccn1 [Compound 65, N-(4-(4-carbamoyl-5-((2-methoxypyridin-4-yl)amino)-1H-pyrazol-3-yl)phenyl)isoindoline-2-carboxamide] |
| 100 to 1000 | > 1000 | > 1000 | COc1cccc(Nc2[nH]nc(-c3ccc(NC(=O)Cc4ccccc4)cc3)c2C(N)=O)c1 [Compound 46, 5-((3-methoxyphenyl)amino)-3-(4-(2-phenylacetamido)phenyl)-1H-pyrazole-4-carboxamide] |
| > 1000 | > 1000 | > 1000 | CC(C)C(C(=O)Nc1ccc(-c2n[nH]c(Nc3ccccn3)c2C(N)=O)cc1)c1ccccc1 (stereo not drawn) [Compound 2, 3-(4-(3-methyl-2-phenyl-butanamido)phenyl)-5-(pyridin-2-ylamino)-1H-pyrazole-4-carboxamide] |
| < 100 | 100 to 1000 | > 1000 | COc1cc(Nc2[nH]nc(-c3ccc(NC(=O)N4CCCC(c5ccccc5)C4)cc3)c2C(N)=O)ccn1 (stereo not drawn) [Compound 59, N-(4-(4-carbamoyl-5-((2-methoxypyridin-4-yl)amino)-1H-pyrazol-3-yl)phenyl)-3-phenylpiperidine-1-carboxamide] |
| 100 to 1000 | > 1000 | > 1000 | NC(=O)c1c(-c2ccc(NC(=O)c3ccn(-c4ccccc4)n3)cc2)n[nH]c1Nc1cccc(C(F)(F)F)n1 [Compound 37, N-(4-(4-carbamoyl-5-((6-(trifluoromethyl)pyridin-2-yl)amino)-1H-pyrazol-3-yl)phenyl)-1-phenyl-1H-pyrazole-3-carboxamide] |
| 100 to 1000 | > 1000 | > 1000 | CNC(C(=O)Nc1ccc(-c2n[nH]c(Nc3ccccn3)c2C(N)=O)cc1)c1ccccc1 (stereo not drawn) [Compound 33, 3-(4-(2-(methylamino)-2-phenylacetamido)phenyl)-5-(pyridin-2-ylamino)-1H-pyrazole-4-carboxamide] |
| < 100 | > 1000 | > 1000 | COc1cc(Nc2[nH]nc(-c3ccc(NC(=O)N4CCC(c5cccc(C(F)(F)F)c5)C4)cc3)c2C(N)=O)ccn1 (stereo not drawn) [Compound 69] |
| < 100 | 100 to 1000 | > 1000 | NC(=O)c1c(-c2ccc(NC(=O)N3CCc4ccc(C(F)(F)F)cc4C3)cc2)n[nH]c1Nc1cnccn1 [Compound 99, N-(4-(4-carbamoyl-5-(pyrazin-2-ylamino)-1H-pyrazol-3-yl)phenyl)-7-(trifluoromethyl)-3.4-dihydroisoquinoline-2(1H)-carboxamide] |
| < 100 | 100 to 1000 | > 1000 | COc1cc(Nc2[nH]nc(-c3ccc(NC(=O)N4CCc5ccc(C(F)(F)F)cc5C4)cc3)c2C(N)=O)ccn1 [Compound 56] |
| > 1000 | > 1000 | > 1000 | NC(=O)c1c(-c2ccc(NC(=O)Cc3cccs3)cc2)n[nH]c1Nc1ccccn1 [Compound 14, 5-(pyridin-2-ylamino)-3-(4-(2-(thiophen-2-yl)acetamido)phenyl)-1H-pyrazole-4-carboxamide] |
| 100 to 1000 | > 1000 | > 1000 | COc1ccccc1CC(=O)Nc1ccc(-c2n[nH]c(Nc3cnccn3)c2C(N)=O)cc1 [Compound 28, 3-(4-(2-(2-methoxyphenyl)acetamido)phenyl)-5-(pyrazin-2-ylamino)-1H-pyrazole-4-carboxamide] |
| > 1000 | > 1000 | > 1000 | Cc1cccnc1Nc1[nH]nc(-c2ccc(NC(=O)Cc3ccccc3)cc2)c1C(N)=O [Compound 40, 5-((3-methylpyridin-2-yl)amino)-3-(4-(2-phenyl-acetamido)phenyl)-1H-pyrazole-4-carboxamide] |
| > 1000 | > 1000 | > 1000 | NC(=O)c1c(-c2ccc(NC(=O)Cc3ccccc3)cc2)n[nH]c1Nc1nc(Cl)ccc1F [Compound 41, 5-((6-chloro-3-fluoropyridin-2-yl)amino)-3-(4-(2-phenyl-acetamido)phenyl)-1H-pyrazole-4-carboxamide] |
| < 100 | > 1000 | > 1000 | COc1cc(Nc2[nH]nc(-c3ccc(NC(=O)N4CCC(c5ccc(OC(F)(F)F)cc5)C4)cc3)c2C(N)=O)ccn1 (stereo not drawn) [Compound 71, 5-((2-methoxypyridin-4-yl)amino)-3-(4-(3-(4-(trifluoromethoxy)phenyl)pyrrolidine-1-carboxamido)phenyl)-1H-pyrazole-4-carboxamide] |
| 100 to 1000 | > 1000 | > 1000 | COCCOc1ccnc(Nc2[nH]nc(-c3ccc(NC(=O)Cc4ccccc4)cc3)c2C(N)=O)c1 [Compound 45, 5-((4-(2-methoxyethoxy)pyridin-2-yl)amino)-3-(4-(2-phenyl-acetamido)phenyl)-1H-pyrazole-4-carboxamide] |
| < 100 | > 1000 | > 1000 | COc1cc(Nc2[nH]nc(-c3ccc(NC(=O)N4CCc5cc(C(F)(F)F)ccc5C4)cc3)c2C(N)=O)ccn1 [Compound 52, N-(4-(4-carbamoyl-5-((2-methoxypyridin-4-yl)amino)-1H-pyrazol-3-yl)phenyl)-6-(trifluoromethyl)-3,4-dihydroisoquinoline-2(1H)-carboxamide] |
